In PMC5297516 (mAbs, 2016):

Target: HER2 extracellular domain (ECD) (Homo sapiens, UniProt P04626)
Assay: SPR

Kd [nM]	Binder
0.75	anti-HER2 IgG1 variant VH Q39E CH1 S183K / VL Q38K CL V133E (antibody, V domains shown) VH: [about 120 residues omitted here] VL: DIQMTQSPSSLSASVGDRVTITCRASQDVNTAVAWYQKKPGKAPKLLIYSASFLESGVPSRFSGSRSGTDFTLTISSLQPEDFATYYCQQHYTTPPTFGQGTKVEIK
0.46	anti-HER2 IgG1 variant VH Q39K CH1 S183E / VL Q38E CL V133K (antibody, V domains shown) VH: [about 120 residues omitted here] VL: DIQMTQSPSSLSASVGDRVTITCRASQDVNTAVAWYQEKPGKAPKLLIYSASFLESGVPSRFSGSRSGTDFTLTISSLQPEDFATYYCQQHYTTPPTFGQGTKVEIK
